Data set [1] in a line: Thermodynamic (aqueous) solubility, 24 hours at 25° C., HPLC quantitation. Format: physicochemical. As to the method:
Aqueous solubility was determined by suspending sufficient amount of compound in 0.5 ml media for a maximum anticipated concentration of ca. 10 mg/ml. The suspension was equilibrated at 25° C., on a Heidolph plate shaker set to 750 rpm for 24 hours. The pH of the sample solutions was periodically checked and, if required, adjusted with 0.2M NaOH to ensure that the desired pH was maintained (±0.05) throughout. The pH of the saturated solution after this time was measured and the suspension filtered through a glass fibre C filter (particle retention 1.2 μm) and diluted appropriately.
Quantitation was by HPLC with reference to a standard solution of approximately 0.15 mg/ml in 1:1 MeCN/H2O. Different volumes of the standard, diluted and undiluted sample solutions were injected.
Different volumes of the standard, diluted and undiluted sample solutions were injected. The solubility was calculated using the peak areas determined by integration of the peak found at the same retention time as the principal peak in the standard injection.
Analysis was performed on an Agilent HP1100 series system equipped with a diode array detector and using ChemStation software.

The nature of data set [2]: Intrinsic dissolution rate (IDR), Sirius inForm, compressed discs. Format: physicochemical. The following applies: 37° C., pH 5.0 media, 1 hour, 6 mm disc. The procedure: IDR Method Ca. 40 mg material was compressed under 100 kg for 2 minutes to form non-disintegrating discs. The discs were then plugged with a bung so that only one surface was exposed to the media during analysis, and transferred to the dissolution apparatus (Sirius inForm). The volume of the assay was 40 ml and a stir speed of 225 rpm was used. Analysis was performed at 37° C. in pH 5.0 media for 1 hour with UV spectra collected every 30 seconds, using a 20 mm path length probe.

[3] abbreviates: Media DI Water, pH 7.8, final pH 5.24-5.42.
Where [4] appears, read: pH 4.0 media (42.4 ml 0.1 M acetic acid mixed with 7.6 ml 0.1 M sodium acetate).

A value given as a limit tells only on which side of the number the result lay.

“Pinoxaden:MCPA (1:1) Molecular Complex [Example 4]”: in data set [1] (setting [3]), the “Thermodynamic solubility of pinoxaden component” value stood at 200 µg/mL and the “Thermodynamic solubility of second component” value was found to be 110 µg/mL.
In the case of “Pinoxaden:Fluroxypyr (1:1) Molecular Complex [Example 2]”, in data set [2], the “IDR of pinoxaden component” value is 64.5 μg/min/cm^2 and the “IDR of second component” value amounted to 104.5 μg/min/cm^2. In data set [1] (Media DI Water, final pH 3.97-4.10), the “Thermodynamic solubility of pinoxaden component” value is listed as “ca. 0.01 mg/ml”. The “Thermodynamic solubility of second component” value in data set [1] (Media DI Water, final pH 4.04-4.10) is 250 µg/mL.
For “Pinoxaden:Dicamba (1:1) Molecular Complex [Example 5]”, in data set [1] (setting [4]), the “Thermodynamic solubility of pinoxaden component” value was found to be 310 µg/mL and the “Thermodynamic solubility of second component” value is over 5300 µg/mL.

The values are drawn from patent US20220369641A1, “MOLECULAR COMPLEXES” (priority 2019, published 2022).
